# Results: ChEMBL document CHEMBL1136242, “Arachidonylsulfonyl derivatives as cannabinoid CB1 receptor and fatty acid amide hydrolase inhibitors” (Bioorg Med Chem Lett, 2003)
# Chains of the proteins cited; added tags and fusions are not shown.
# UniProt P47746, whole entry: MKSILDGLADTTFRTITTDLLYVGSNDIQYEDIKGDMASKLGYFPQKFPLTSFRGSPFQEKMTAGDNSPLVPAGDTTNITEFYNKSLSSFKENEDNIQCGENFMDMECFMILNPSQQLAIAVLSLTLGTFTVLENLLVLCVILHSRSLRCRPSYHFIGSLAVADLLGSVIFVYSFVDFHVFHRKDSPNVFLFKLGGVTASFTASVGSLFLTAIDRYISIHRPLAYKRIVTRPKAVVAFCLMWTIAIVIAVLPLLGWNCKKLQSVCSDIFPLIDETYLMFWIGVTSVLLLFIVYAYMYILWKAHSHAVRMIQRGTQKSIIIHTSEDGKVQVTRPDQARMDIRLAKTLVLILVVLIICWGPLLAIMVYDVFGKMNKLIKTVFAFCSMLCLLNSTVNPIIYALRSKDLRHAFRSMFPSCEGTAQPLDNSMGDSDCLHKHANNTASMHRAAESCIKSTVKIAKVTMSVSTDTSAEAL
# UniProt P20272, whole entry: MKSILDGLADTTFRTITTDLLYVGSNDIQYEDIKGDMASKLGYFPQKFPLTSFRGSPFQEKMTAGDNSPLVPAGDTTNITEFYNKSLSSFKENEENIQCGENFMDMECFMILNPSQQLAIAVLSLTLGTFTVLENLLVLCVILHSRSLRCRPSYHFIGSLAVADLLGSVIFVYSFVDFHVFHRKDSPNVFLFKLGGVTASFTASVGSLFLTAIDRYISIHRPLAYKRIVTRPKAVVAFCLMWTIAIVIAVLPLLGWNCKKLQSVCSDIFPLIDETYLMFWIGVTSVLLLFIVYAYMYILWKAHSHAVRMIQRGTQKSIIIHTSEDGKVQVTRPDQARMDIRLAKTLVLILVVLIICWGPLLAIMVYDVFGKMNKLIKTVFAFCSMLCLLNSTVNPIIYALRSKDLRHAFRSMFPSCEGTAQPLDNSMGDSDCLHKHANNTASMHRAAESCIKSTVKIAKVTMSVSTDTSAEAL
# Columns and labels:
# Cannabinoid receptor 1 [1] = target: Cannabinoid receptor 1 (Mus musculus, UniProt P47746); assay: Binding affinity towards Cannabinoid receptor 1 was determined using [3H]-CP- cannabinoid as radioligand with mouse brain membrane in the presence of PMSF
# Cannabinoid receptor 1 [2] = target: Cannabinoid receptor 1 (Rattus norvegicus, UniProt P20272); assay: Binding affinity towards Cannabinoid receptor 1 was determined using [3H]-CP- cannabinoid as radioligand with rat brain membrane in the presence of PMSF
structure (smiles),measurement,setting,value
CCCCC/C=C\C/C=C\C/C=C\C/C=C\CCCC(=O)NCCO [ANANDAMIDE],IC50,Cannabinoid receptor 1 [1],0.039 µM
same,IC50,Cannabinoid receptor 1 [2],0.04 µM
